These results are taken from patent publication US12636320B2, “Methods and agents for treating solid tumor cancers” (priority 2019, dated 2026).

This data set concerns Stage 4 pancreatic ductal adenocarcinoma. In kind it is in vivo, human. Particulars: by month six; absence of feeling in hands and feet. How it is done: SalpIL2 was administered to Patient 1 every two weeks with standard of care chemotherapy.
A patient with metastatic pancreas cancer (hereinafter referred to as “Patient 1”) individually sought out the possibility of receiving SalpIL2 in addition to their standard of care chemotherapy.
Patient 1 was a person with a past medical history of hypercholesterolemia and presented with a several week history of abdominal pain and bloating. Patient 1's workup eventually elucidated a 3.9×5.7 cm mass in the tail of the pancreas with invasion of the splenic hilum and left adrenal gland. In addition, there were multiple metastatic nodules in the lungs and liver of Patient 1. Subsequent fine needle aspiration and biopsy confirmed the diagnosis of Stage 4 pancreatic ductal adenocarcinoma. Patient 1 was immediately started on the FOLFIRINOX regimen of leucovorin, 5-fluorouracil, irinotecan, and oxaliplatin administered every two weeks. Well aware of their prognosis of a median survival of 11.1 months, Patient 1 reached out for the possibility of adding SalpIL2 to their treatment regimen. […]

For the substance oxaliplatin, the “Neurotoxicity in Patient 1” value is reported as “severe neurotoxicity”.
